## scFv variants of Ab-14 (heavy chain) against a SARS-CoV-2 spike peptide

Reference: Engelhart et al. 2022, doi:10.1038/s41597-022-01779-4. File: FLAb, binding data.

All variants were tested on one target, the spike HR2 peptide PDVDLGDISGINAS (SARS-CoV-2).

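The starting antibody came from a phage panning campaign against this peptide. Library AAYL49 holds single substitutions and randomly drawn double and triple substitutions in the CDRs. The scFvs were displayed on barcoded MATa yeast, the peptide on MATalpha yeast. Binding brings cells together so that they mate, and sequencing counts the barcode pairs among the diploids. Each replicate has its own calibration line, from reference interactions of the BCL2 family. The assay was run in three technical replicates.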

Parent scFv Ab-14: VH joined to VL by the linker GGGGSGGGGSGGGGS. Changes lie in the heavy chain CDRs alone.
VH: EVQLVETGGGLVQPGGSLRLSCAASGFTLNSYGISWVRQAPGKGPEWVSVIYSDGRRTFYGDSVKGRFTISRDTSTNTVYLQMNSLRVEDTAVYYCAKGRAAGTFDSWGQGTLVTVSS
VL: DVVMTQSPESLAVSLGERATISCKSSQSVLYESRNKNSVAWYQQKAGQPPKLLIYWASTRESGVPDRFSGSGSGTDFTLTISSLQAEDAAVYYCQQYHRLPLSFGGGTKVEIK

Each variant's VH is given in full.
Numbers give log10(Kd / nM), so 0 is 1 nM and 3 is 1 µM. Smaller is tighter.
A mean of the replicates is given; it leaves out those without a signal.
Where no diploid with the target was found in any replicate, the entry reads "no signal": below detection, most likely a poor binder, though not proof of it.

mean, log10 nM | seen in | VH
no signal | 0/3 | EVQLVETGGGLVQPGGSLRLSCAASGFTLNSYGISWVRQAPGKGPEWVSVIYSDGRRTIYGDSLTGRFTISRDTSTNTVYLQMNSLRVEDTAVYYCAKGRAAGTFDSWGQGTLVTVSS
1.98 | 3/3 | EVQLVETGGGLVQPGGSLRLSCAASGFTLNRAGISWVRQAPGKGPEWVSVIYSDGRRTFYGDSVKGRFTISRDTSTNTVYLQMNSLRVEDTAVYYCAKGTAAGTFDSWGQGTLVTVSS
1.77 | 3/3 | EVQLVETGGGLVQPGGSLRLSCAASGFTQNSYGISWVRQAPGKGPEWVSVIYSDGRRTAYGDSVKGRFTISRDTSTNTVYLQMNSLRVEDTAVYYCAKGRAAGTFDLWGQGTLVTVSS
2.86 | 3/3 | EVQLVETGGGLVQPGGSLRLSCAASGFHLNSYGISWVRQAPGKGPEWVSVIYSDGRATFYADSVKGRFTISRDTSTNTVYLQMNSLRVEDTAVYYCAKGRAAGTFDSWGQGTLVTVSS
2.06 | 3/3 | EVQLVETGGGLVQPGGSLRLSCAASGFTLNYYGISWVRQAPGKGPEWVSVIYSDGRRKFYGDSVKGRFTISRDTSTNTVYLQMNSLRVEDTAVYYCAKGRAAGTIDSWGQGTLVTVSS
3.64 | 1/3 | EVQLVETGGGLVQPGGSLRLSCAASGFTLNSYGISWVRQAPGKGPEWVSVIYSDGRRTFQGDNVKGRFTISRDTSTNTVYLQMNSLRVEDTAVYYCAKGRALGTFDSWGQGTLVTVSS
3.50 | 1/3 | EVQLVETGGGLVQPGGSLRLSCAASGFHLNSYGISWVRQAPGKGPEWVSVIQSDGRRTFYGDSVKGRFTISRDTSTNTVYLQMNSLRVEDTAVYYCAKGRAAGTFMSWGQGTLVTVSS
no signal | 0/3 | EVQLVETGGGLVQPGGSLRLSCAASGFTLCSYGTSWVRQAPGKGPEWVSVIYSDGRRTFYGDSVKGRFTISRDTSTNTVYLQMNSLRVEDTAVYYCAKGRAAGTFDSWGQGTLVTVSS
4.78 | 2/3 | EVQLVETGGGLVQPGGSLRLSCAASGFTLNSYGISWVRQAPGKGPEWVSVIYSDGRRTPYGDSVKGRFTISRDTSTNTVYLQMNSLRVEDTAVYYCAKGRAAGNFDSWGQGTLVTVSS
no signal | 0/3 | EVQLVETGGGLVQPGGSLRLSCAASGFTLNSVGISWVRQAPGKGPEWVSVIYSDGRNTFYGDSVKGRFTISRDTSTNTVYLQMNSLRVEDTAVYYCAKDRAAGTFDSWGQGTLVTVSS
no signal | 0/3 | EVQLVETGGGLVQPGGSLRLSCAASGFTLNSYGIRWVRQAPGKGPEWVSVIYTDGRRTFYGDSVKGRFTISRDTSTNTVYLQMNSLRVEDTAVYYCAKYRAAGTFDSWGQGTLVTVSS
3.34 | 1/3 | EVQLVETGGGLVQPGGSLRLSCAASGFTLNSTGISWVRQAPGKGPEWVSGIYSDGRRTFYGDSVKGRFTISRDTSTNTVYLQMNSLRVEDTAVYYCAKGRAAGTFDHWGQGTLVTVSS
no signal | 0/3 | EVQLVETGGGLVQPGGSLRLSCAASGFTFNSYGISWVRQAPGKGPEWVSVIYSDGRRTFYGDSLKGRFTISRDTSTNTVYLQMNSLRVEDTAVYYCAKDRAAGTFDSWGQGTLVTVSS
no signal | 0/3 | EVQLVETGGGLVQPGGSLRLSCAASGFTLNSYGISWVRQAPGKGPEWVSVIYSDERRTFMGDSVKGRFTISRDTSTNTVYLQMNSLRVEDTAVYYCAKGFAAGTFDSWGQGTLVTVSS
no signal | 0/3 | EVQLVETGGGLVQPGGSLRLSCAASGFTLNSYGESWVRQAPGKGPEWVSVYYSDGRRSFYGDSVKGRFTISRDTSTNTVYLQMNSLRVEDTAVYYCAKGRAAGTFDSWGQGTLVTVSS
no signal | 0/3 | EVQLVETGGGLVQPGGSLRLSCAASRFDLNSYGISWVRQAPGKGPEWVSVIYSDGRRTCYGDSVKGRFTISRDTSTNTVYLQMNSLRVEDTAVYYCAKGRAAGTFDSWGQGTLVTVSS
3.65 | 3/3 | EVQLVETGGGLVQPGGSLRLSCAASQFTLNSYGISWVRQAPGKGPEWVSVIYSDGRRTFYMDSVKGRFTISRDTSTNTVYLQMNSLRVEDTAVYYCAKGRACGTFDSWGQGTLVTVSS
no signal | 0/3 | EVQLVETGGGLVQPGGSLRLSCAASGFTLNSYGISWVRQAPGKGPEWVSVIYSHGRRTFYGKSVKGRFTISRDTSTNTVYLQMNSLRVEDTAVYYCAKGAAAGTFDSWGQGTLVTVSS
2.14 | 3/3 | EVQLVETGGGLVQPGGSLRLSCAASGFTLNSYGISWVRQAPGKGPEWVSVIYSDGRRTFYKDSVKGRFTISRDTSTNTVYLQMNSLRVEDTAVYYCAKSRAAKTFDSWGQGTLVTVSS
no signal | 0/3 | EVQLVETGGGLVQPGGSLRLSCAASGRTLNSYGISWVRQAPGKGPEWVSVIYSDGRASFYGDSVKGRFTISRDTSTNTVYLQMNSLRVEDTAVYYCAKGRAAGTFDSWGQGTLVTVSS
no signal | 0/3 | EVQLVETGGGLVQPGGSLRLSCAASGFTRNSYGISWVRQAPGKGPEWVSVIYSDGWRTFYGLSVKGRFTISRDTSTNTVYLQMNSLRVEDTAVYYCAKGRAAGTFDSWGQGTLVTVSS
4.68 | 1/3 | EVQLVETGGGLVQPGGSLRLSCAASGFTLNSYGIVWVRQAPGKGPEWVSVLYSDGRRTFYIDSVKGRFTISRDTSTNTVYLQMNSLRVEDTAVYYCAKGRAAGTFDSWGQGTLVTVSS
4.74 | 2/3 | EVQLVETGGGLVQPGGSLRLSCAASGFTLGSYGISWVRQAPGKGPEWVSKIYSDGRRTFYGDSVKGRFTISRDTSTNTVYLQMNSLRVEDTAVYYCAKQRAAGTFDSWGQGTLVTVSS
5.36 | 2/3 | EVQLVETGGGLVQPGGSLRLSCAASGFTLNSYGISWVRQAPGKGPEWVSVIDSDGRRTFYGDSCKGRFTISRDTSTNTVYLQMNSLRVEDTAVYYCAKGRAAGTFDSWGQGTLVTVSS

Excerpt, the first 4 entries:

VH	mean, log10 nM	seen in
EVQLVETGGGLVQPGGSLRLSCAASGFTLNSYGISWVRQAPGKGPEWVSVIYSDGRRTIYGDSLTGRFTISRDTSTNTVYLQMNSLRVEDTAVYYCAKGRAAGTFDSWGQGTLVTVSS	no signal	0/3
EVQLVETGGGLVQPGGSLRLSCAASGFTLNRAGISWVRQAPGKGPEWVSVIYSDGRRTFYGDSVKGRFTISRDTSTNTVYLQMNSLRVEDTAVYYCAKGTAAGTFDSWGQGTLVTVSS	1.98	3/3
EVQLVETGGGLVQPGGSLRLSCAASGFTQNSYGISWVRQAPGKGPEWVSVIYSDGRRTAYGDSVKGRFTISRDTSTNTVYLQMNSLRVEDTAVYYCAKGRAAGTFDLWGQGTLVTVSS	1.77	3/3
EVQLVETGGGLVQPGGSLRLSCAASGFHLNSYGISWVRQAPGKGPEWVSVIYSDGRATFYADSVKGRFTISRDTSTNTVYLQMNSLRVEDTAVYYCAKGRAAGTFDSWGQGTLVTVSS	2.86	3/3

As a blank, each scFv also met three strains without target: over library AAYL49, 15% of these pairings were detected, typically at 4.06 and seldom below 2.83.
For reference, the parent read 0.65 as the reference entry and 4.11 (one replicate of three) as a member of this library.